We go through 2 molecules from US5215915A, “Cloned gene encoding rat D1B dopamine receptor” (Duke University, priority 1991, dated 1993).

By UniProt entry, the sequences of proteins in these tests, tags left out. Where a name states a change or a piece, a line headed by the entry shows the natural chain unless it says otherwise.
UniProt P21728, whole entry: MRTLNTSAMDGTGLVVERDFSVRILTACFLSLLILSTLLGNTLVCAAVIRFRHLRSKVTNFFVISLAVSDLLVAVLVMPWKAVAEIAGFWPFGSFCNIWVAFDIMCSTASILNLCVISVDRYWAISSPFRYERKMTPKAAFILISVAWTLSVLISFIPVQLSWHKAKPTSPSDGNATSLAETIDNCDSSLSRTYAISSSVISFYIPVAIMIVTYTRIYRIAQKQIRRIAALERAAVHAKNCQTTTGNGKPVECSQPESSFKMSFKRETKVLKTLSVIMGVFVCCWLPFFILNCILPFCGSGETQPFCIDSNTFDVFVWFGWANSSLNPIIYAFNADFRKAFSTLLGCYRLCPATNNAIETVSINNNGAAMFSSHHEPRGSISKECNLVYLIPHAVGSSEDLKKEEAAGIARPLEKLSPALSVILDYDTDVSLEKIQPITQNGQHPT

For the assay, the target named is T1, HUMAN D1A RECEPTOR (Homo sapiens, UniProt P21728).
T1 construct: expressed in transfected cells; host or cells: COS-7 cells (transient), pCMV5-D1
The assay is described as follows: Competition binding against [^125 I]SCH 23982 in membranes of COS-7 cells transfected with pCMV5-D1. As to conditions: [^125 I]SCH 23982 competition, COS-7 cell membranes, 1 hr, room temperature; read-out: Equilibrium dissociation constant (KD), human D1A receptor.

pKd: −log10 of the molar value.

Broadly, the pKd is the negative decadic logarithm of the Kd, by convention in mol/L. For the molecule `OCCN1CCN(CCCC2c3ccc(F)cc3Sc3ccc(C(F)(F)F)cc32)CC1` (stereo not drawn) [CIS-TEFLUTIXOL, cis-teflutixol], the pKd was 7.62.

For cis-piflutixol, the pKd is 9.19.
